Columns and labels:
human KDAC8 [1] = biological target: T1, human KDAC8 (Homo sapiens, UniProt Q9BY41); assay: Progress curves of continuous KDAC8 assay: relative KDAC8 activity after 5,000 s (stabilization curves)
T1 sequence (Q9BY41 1-377): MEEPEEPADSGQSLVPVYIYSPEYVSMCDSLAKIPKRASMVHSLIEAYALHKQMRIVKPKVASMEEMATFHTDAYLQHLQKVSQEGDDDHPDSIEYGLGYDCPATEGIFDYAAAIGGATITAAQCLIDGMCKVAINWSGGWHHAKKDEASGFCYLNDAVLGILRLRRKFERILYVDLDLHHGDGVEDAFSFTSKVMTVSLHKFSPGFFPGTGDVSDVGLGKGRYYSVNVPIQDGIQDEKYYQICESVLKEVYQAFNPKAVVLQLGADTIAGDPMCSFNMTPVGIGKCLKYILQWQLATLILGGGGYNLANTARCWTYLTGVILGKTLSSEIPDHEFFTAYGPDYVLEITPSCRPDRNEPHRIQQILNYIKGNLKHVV

human KDAC8 [2] = biological target: T1, human KDAC8; assay: Continuous (one-step) KDAC8 enzyme activity assay, IC50 determination; assay type: biochemical; design: full-length human KDAC8 was produced in E. coli BL21 (DE3); His6-SUMO (N, cleaved yes); made in house; host or cells: E. coli BL21 (DE3), pET14b vector

O=C(CCCCCCC(=O)Nc1ccccc1)NO [SAHA, suberoylanilide hydroxamic acid]
EC50 (human KDAC8 [1]): 3.2 ± 0.9 µM | IC50 (human KDAC8 [2]): 3.6 ± 0.9 µM

— article PMC10344891, “Continuous enzyme activity assay for high-throughput classification of histone deacetylase 8 inhibitors” (Exploration of Targeted Anti-tumor Therapy, 2023)
